Several values for one entry are separate records, joined by “and”; a condition that tells them apart may be missing. Equal values may be shown once. Read-outs that look alike come from different tables or passages of the source.
Tests used:
[1] = test system: Raji; type: cell-based; conditions: Raji (CD79B negative-expression), 72 h, MTT
[2] = test system: DOHH-2 cells highly expressing human CD79B protein; type: cell-based; conditions: DoHH2 cells, 20 μg/mL ADC, 37° C.
Procedure: A cell endocytosis experiment was performed with DOHH-2 cells (DSMZ, ACC 47) highly expressing human CD79B protein to assess the endocytosis ability of ADCs.
The cells were collected by low temperature centrifugation at 4° C. for 5 min at 1000 rpm during the experiment. The cells were resuspended in 10-15 mL of FACS buffer pre-cooled on ice. The FACS buffer was composed of phosphate buffered saline (PBS), pH 7.4, with 2% fetal bovine serum (FBS). Throughout the experiment, FACS buffer was pre-cooled on ice. The cells were counted and centrifuged, and added to a 96-well plate at 300,000 cells/well. After centrifugation, the supernatant was discarded, and 12.5 μg/mL Fc blocking solution (BD, Cat No.: 564220) was added at 100 μL/well. Blocking was performed at room temperature for 10 min. Then, 20 μg/mL test ADC was added to the corresponding wells, and the plate was incubated at 4° C. for 1 h away from the light. The plate was washed twice with a pre-cooled PBS buffer to remove unbound ADCs. A complete cell culture medium (RPMI 1640 medium with 10% fetal bovine serum) was added, and the plate was incubated at 37° C. with 5% CO2 for 0 h and 4 h. After centrifugation, the supernatant was discarded, 2% PFA buffer solution was added at 100 μL/well to resuspend the cells, and the plate was left to stand for 10 min. Then, the plate was washed 3 times with an FACS buffer, and 100 μL of secondary antibody solution (fluorescent labeled goat anti-human secondary antibody: diluted in a 1:250 ratio, 2 μg/mL, Biolegend, Cat #409304) was added. The plate was incubated at 4° C. for half an hour away from the light. A pre-cooled PBS buffer was added, and the supernatant was discarded after centrifugation at 4° C., which were repeated three times. The cells were resuspended in an FACS buffer at 200 μL/well and detected using a flow cytometer (BD FACS Calibur).

[3] = test system: WSU-DLCL2; type: cell-based, human; conditions: WSU-DLCL2 (CD79B low-expression), 72 h, MTT
[4] = test system: human diffuse large B-cell lymphoma WSU-DLCL2-induced nude mouse subcutaneous xenograft tumor; type: in vivo, nude mice (BALB/c-nu); conditions: IV; for Mean tumor volume (mm^3) D0: baseline at grouping; for % T/C D21 / % Tumor growth inhibition D21 / Mean tumor volume (mm^3) D21 / Partial regression: single dose D0; for Partial regression: tumors of 6
[5] = test system: DoHH2; type: cell-based, human; conditions: DoHH2 (CD79B high-expression), 72 h, MTT
[6] = test system: human follicular lymphoma DOHH-2-induced nude mouse subcutaneous xenograft tumor; type: in vivo, nude mice (BALB/c-nu); conditions: 1 mg/kg
Procedure: This example was performed to further evaluate and compare the efficacy of ADC drugs on DoHH2-induced nude mouse subcutaneous xenograft tumor.
2. Cells and mice: DOHH-2 cells were purchased from DSMZ, Germany. DOHH-2 cells were cultured in a 10 cm petri dish with an RPMI 1640 culture medium (Gibco) containing 10% fetal bovine serum, penicillin and streptomycin and incubated in an incubator at 37° C. with 5% CO2. Subculturing was performed 2-3 times a week, and cells were collected, counted and seeded when they were in exponential growth phase.
Nude mice, BALB/c-nu, 4-5 weeks of age, female, were purchased from Shanghai Lingchang Biotechnology Co., Ltd, with production license number of SCXK (Shanghai) 2018-0003, and animal certification number of 20180003010222. Housing environment: SPF grade.
3. Experimental steps: each nude mouse was subcutaneously inoculated with 3×10^7 DOHH-2 cells, and after the tumor volume reached 100-150 mm^3, the animals were grouped according to tumor volume (D0). The mice were administrated by intravenous injection (IV) at an administration volume of 10 mL/kg. The tumor volumes and body weights were measured twice a week and the results were recorded.
The experimental index is to study the effect of the drug on the tumor growth, and the specific index is T/C % or tumor growth inhibition TGI (%).
Tumor diameters were measured twice a week with a vernier caliper and tumor volume (V) was calculated according to the following formula: V=½×a×b^2 where a and b represent length and width, respectively.
T/C (%)=(T−T0)/(C−C0)×100 where T and C represent the tumor volume of animals at the end of the experiment in the treatment group and control group, respectively; T0 and C0 represent the tumor volume of animals at the beginning of the experiment in the treatment group and control group, respectively; where T is the tumor volume of the ADC administered and C is the tumor volume of IgG1 administered as a control group.
At the end of the experiment, at the experiment endpoint, or when the mean tumor volume in the solvent group reached 1500 mm^3, the animals were sacrificed by CO2 anesthesia and dissected to give the tumors. The tumors were photographed.
Unless otherwise indicated, comparison between tumor volumes of the two groups was made by two-way ANOVA test, with P<0.05 defined as statistically significant difference.

Row | Molecule | IC50 [1] [ng/mL] | Endocytosis rate (4 h) [2] [%] | IC50 [3] [ng/mL] | Mean tumor volume (mm^3) D0 ([4]; 3 mg/kg) [mm^3] | % T/C D21 ([4]; 3 mg/kg) [%] | % Tumor growth inhibition D21 ([4]; 3 mg/kg) [%] | Mean tumor volume (mm^3) D21 ([4]; 3 mg/kg) [mm^3] | Partial regression ([4]; 3 mg/kg) | Mean tumor volume (mm^3) D0 ([4]; 6 mg/kg) [mm^3] | % T/C D21 ([4]; 6 mg/kg) [%] | % Tumor growth inhibition D21 ([4]; 6 mg/kg) [%] | Mean tumor volume (mm^3) D21 ([4]; 6 mg/kg) [mm^3] | Partial regression ([4]; 6 mg/kg) | IC50 [5] [ng/mL] | other results
1 | ADC-5: HAB015-10-cys-D, with a DAR value of about 2 (conjugate) heavy: EVQLVQSGAEVKKPGSSVKVSCKASGSSFSSYGINWVKQAPGQGLEWIGEIFPRSGNTYYNEKFEGRATLTADKSTSTAYMELRSLRSEDTAVYYCAKGDLGDFDYWGQGTTVTVSSASTKGPSVFPLAPSSKSTSGGTAALGCLVKDYFPEPVTVSWNSGALTSGVHTFPAVLQSSGLYSLSSVVTVPSSSLGTQTYICNVNHKPSNTKVDKKV[letters of human IgG1 Fc not shown] light: DFVMTQTPLSLPVTPGEPASISCRSSQSIVHSDGNTYFEWYLQKPGQSPKLLIYKVSNRFSGVPDRFSGSGSGTDFTLKISRVEAEDVGVYYCFQGSHVPWTFGGGTKVEIKRTVAAPSVFIFPPSDEQLKSGTASVVCLLNNFYPREAKVQWKVDNALQSGNSQESVTEQDSKDSTYSLSSTLTLSKADYEKHKVYACEVTHQGLSSPVTKSFNRGEC | >10000 | 76 | 68.3 | 111.0 | 31 | 69 | 343.7 | 0 | 110.8 | 14 | 86 | 218.5 | 1/6 and 1 | 8.5 | Mean tumor volume (mm^3) D0 ([4]; 12 mg/kg): 111.3 mm^3; % T/C D21 ([4]; 12 mg/kg): 12%; % Tumor growth inhibition D21 ([4]; 12 mg/kg): 88%; Mean tumor volume (mm^3) D21 ([4]; 12 mg/kg): 203.6 mm^3; Partial regression ([4]; 12 mg/kg): 1/6 and 1
2 | ADC-6: hAb015-10-cys-D, with a target DAR value of about 4 (conjugate) heavy: EVQLVQSGAEVKKPGSSVKVSCKASGSSFSSYGINWVKQAPGQGLEWIGEIFPRSGNTYYNEKFEGRATLTADKSTSTAYMELRSLRSEDTAVYYCAKGDLGDFDYWGQGTTVTVSSASTKGPSVFPLAPSSKSTSGGTAALGCLVKDYFPEPVTVSWNSGALTSGVHTFPAVLQSSGLYSLSSVVTVPSSSLGTQTYICNVNHKPSNTKVDKKV[letters of human IgG1 Fc not shown] light: DFVMTQTPLSLPVTPGEPASISCRSSQSIVHSDGNTYFEWYLQKPGQSPKLLIYKVSNRFSGVPDRFSGSGSGTDFTLKISRVEAEDVGVYYCFQGSHVPWTFGGGTKVEIKRTVAAPSVFIFPPSDEQLKSGTASVVCLLNNFYPREAKVQWKVDNALQSGNSQESVTEQDSKDSTYSLSSTLTLSKADYEKHKVYACEVTHQGLSSPVTKSFNRGEC | >10000 | 75 | 54.2 | 108.6 | −8 | 108 | 99.4 | 5/6 and 5 | 108.7 | −25 | 125 | 81.2 | 6/6 and 6 | 3.3 | Mean tumor volume (mm^3) D0 ([6]; IV, D0, baseline at grouping): 112.9 mm^3; Mean tumor volume (mm^3) D20 ([6]; IV, single dose D0, D20): 82.4 mm^3; Tumor growth inhibition (%) D20 ([6]; IV, single dose D0, D20): 127%; T/C (%) D20 ([6]; IV, single dose D0, D20, control IgG1): −27%; Partial regression ([6]; IV, single dose D0, tumors of 6): 5/6 and 5; efficacy on DoHH2-induced nude mouse subcutaneous xenograft tumor (conclusion) ([6]; single intravenous injection): significant efficacy; Mean tumor volume (mm^3) D0 ([4]; 1.5 mg/kg): 109.7 mm^3; % T/C D21 ([4]; 1.5 mg/kg): 34%; % Tumor growth inhibition D21 ([4]; 1.5 mg/kg): 66%; Mean tumor volume (mm^3) D21 ([4]; 1.5 mg/kg): 366.3 mm^3; Partial regression ([4]; 1.5 mg/kg): 0
3 | ADC-7 (conjugate) heavy: EVQLVQSGAEVKKPGSSVKVSCKASGSSFSSYGINWVKQAPGQGLEWIGEIFPRSGNTYYNEKFEGRATLTADKSTSTAYMELRSLRSEDTAVYYCAKGDLGDFDYWGQGTTVTVSSASTKGPSVFPLAPSSKSTSGGTAALGCLVKDYFPEPVTVSWNSGALTSGVHTFPAVLQSSGLYSLSSVVTVPSSSLGTQTYICNVNHKPSNTKVDKKV[letters of human IgG1 Fc not shown] light: DFVMTQTPLSLPVTPGEPASISCRSSQSIVHSDGNTYFEWYLQKPGQSPKLLIYKVSNRFSGVPDRFSGSGSGTDFTLKISRVEAEDVGVYYCFQGSHVPWTFGGGTKVEIKRTVAAPSVFIFPPSDEQLKSGTASVVCLLNNFYPREAKVQWKVDNALQSGNSQESVTEQDSKDSTYSLSSTLTLSKADYEKHKVYACEVTHQGLSSPVTKSFNRGEC | ~10000 | 68 | 53.4 |  |  |  |  |  |  |  |  |  |  | 2.0 | Mean tumor volume (mm^3) D0 ([4]; 1 mg/kg): 107.0 mm^3; % T/C D21 ([4]; 1 mg/kg): 9%; Mean tumor volume (mm^3) D21 ([4]; 1 mg/kg): 178.1 mm^3; Partial regression ([4]; 1 mg/kg): 1/6 and 1

From patent US12642862B2, “Anti-CD79B antibody-drug conjugate, and preparation method therefor and pharmaceutical use thereof” (TUOJIE BIOTECH (SHANGHAI) CO., LTD., priority 2020, dated 2026)
